What was measured:
[1] = test system: bacteria tolerant to the antibiotic agent; conditions: Vancomycin in combination with MBI 26; organisms of Table 18
[2] = format: in vivo; conditions: iv single dose, Swiss CD-1 mice

Row | Molecule | tolerance (MBC:MIC ratio) [1] | dose at which all subjects die [2] [mg/mL]
1 | CN[C@H](CC(C)C)C(=O)N[C@H]1C(=O)N[C@@H](CC(N)=O)C(=O)N[C@H]2C(=O)N[C@H]3C(=O)N[C@H](C(=O)N[C@H](C(=O)O)c4cc(O)cc(O)c4-c4cc3ccc4O)[C@H](O)c3ccc(c(Cl)c3)Oc3cc2cc(c3O[C@@H]2O[C@H](CO)[C@@H](O)[C@H](O)[C@H]2O[C@H]2C[C@](C)(N)[C@H](O)[C@H](C)O2)Oc2ccc(cc2Cl)[C@H]1O [Vancomycin] | overcomes the tolerance | 
2 | I L K K W P W W P W R R K [MBI 11CN] |  | 8
